Experimental data published in US9216997B2, “Tri-heterocyclic derivatives, preparation process and uses thereof” (SHANGHAI DE NOVO PHARMATECH CO LTD., priority 2011, dated 2015).

Sequences of proteins named here, by UniProt entry; tags and fusion partners are left off. Residues count along the entry.
UniProt P36888, 27-993 limits assumed: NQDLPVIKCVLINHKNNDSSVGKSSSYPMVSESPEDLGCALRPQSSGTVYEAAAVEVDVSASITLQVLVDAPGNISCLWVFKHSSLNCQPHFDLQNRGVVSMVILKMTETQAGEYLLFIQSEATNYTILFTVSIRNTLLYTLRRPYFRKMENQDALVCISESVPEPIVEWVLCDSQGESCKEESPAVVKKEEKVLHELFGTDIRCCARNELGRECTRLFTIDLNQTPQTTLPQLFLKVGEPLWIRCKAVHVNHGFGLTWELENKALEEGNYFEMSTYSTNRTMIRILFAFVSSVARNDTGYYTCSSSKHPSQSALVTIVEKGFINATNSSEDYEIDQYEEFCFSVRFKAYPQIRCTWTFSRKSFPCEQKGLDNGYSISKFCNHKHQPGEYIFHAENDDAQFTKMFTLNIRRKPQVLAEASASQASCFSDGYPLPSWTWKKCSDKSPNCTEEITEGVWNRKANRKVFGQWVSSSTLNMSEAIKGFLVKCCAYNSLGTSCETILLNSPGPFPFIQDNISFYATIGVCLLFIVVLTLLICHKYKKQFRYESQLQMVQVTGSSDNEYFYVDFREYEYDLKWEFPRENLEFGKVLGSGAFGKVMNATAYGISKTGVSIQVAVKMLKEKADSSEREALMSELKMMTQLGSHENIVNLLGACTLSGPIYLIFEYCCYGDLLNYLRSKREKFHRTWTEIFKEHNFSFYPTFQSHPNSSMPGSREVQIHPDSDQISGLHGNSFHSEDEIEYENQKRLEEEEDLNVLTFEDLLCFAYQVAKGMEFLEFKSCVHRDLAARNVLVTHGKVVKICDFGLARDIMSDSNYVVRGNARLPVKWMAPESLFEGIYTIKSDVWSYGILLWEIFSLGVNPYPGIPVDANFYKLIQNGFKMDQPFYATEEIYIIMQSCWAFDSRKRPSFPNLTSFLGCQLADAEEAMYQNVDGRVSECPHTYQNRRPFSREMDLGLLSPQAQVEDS

Tests used:
MV4-11 cell = MV4-11 cell proliferation assay (CellTiter-Glo); conditions: read-out: IC50 inhibiting MV4-11 cell proliferation, MV4-11 cells, 72 hours
FLT3 = FLT3 (Homo sapiens (Human), UniProt P36888); assay: FLT3 kinase inhibition assay (Caliper mobility shift assay); assay type: biochemical; conditions: read-out: IC50 inhibiting the FLT3 kinase; 0.9 nM purified FLT3, 97 uM ATP, 28° C., 60 min

Row | SMILES | IC50 (MV4-11 cell) | IC50 (FLT3)
1 | CCNC1(COc2ccc3c(n2)sc2nc(-c4ccc(NC(=O)Nc5cc(C(C)(C)C)on5)cc4)cn23)CC1 | 0.09 nM | 
2 | CN1CCN(CCOc2ccc3c(n2)sc2nc(-c4ccc(NC(=O)Nc5cc(C(C)(C)C)on5)cc4)cn23)CC1 | 0.4 nM | 33 nM
